Assay results reported in patent publication US5945415A, “(R)-5-bromo-N-(1-ethyl-4-methylhexahydr o-1H-1,4-diazepin-6-yl)-2-methoxy-6-methylamino-3-pyridinecarboxamide, process for producing the same and medicinal composition containing the same” (priority 1995, dated 1999).

Chains of the proteins cited; added tags and fusions are not shown.
UniProt P61169, whole entry: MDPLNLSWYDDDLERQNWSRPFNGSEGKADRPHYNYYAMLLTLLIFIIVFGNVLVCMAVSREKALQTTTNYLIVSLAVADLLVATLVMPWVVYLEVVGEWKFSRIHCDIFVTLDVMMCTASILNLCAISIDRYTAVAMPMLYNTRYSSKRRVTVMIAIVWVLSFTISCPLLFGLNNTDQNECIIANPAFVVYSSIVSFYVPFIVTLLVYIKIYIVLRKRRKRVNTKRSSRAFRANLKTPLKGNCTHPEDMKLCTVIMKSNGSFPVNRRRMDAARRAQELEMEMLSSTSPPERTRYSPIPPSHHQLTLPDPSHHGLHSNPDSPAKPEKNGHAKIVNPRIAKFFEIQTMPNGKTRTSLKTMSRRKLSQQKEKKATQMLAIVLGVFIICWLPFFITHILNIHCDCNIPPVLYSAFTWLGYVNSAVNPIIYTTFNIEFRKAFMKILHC

Target: Dopamine D2 receptor (Rattus norvegicus, UniProt P61169)
Details: read-out: IC50 D2; crude synaptosome fractions from rat brain, [3H] spiperone (D2)

CCN(CC)CCNC(=O)c1cc(Cl)c(N)cc1OC.Cl.Cl.O [metoclopramide hydrochloride, 4-amino-5-chloro-N-[2-(diethylamino)ethyl]-2-methoxybenzamide dihydrochloride monohydrate]
IC50: 0.63 µM
